Ab-14 light chain CDR variants: yeast mating affinities

Target peptide (SARS-CoV-2 spike, HR2 region): PDVDLGDISGINAS

Parent scFv Ab-14: VH joined to VL by a 15-residue (Gly4Ser)3 linker. Changes lie in the light chain CDRs alone.
VH: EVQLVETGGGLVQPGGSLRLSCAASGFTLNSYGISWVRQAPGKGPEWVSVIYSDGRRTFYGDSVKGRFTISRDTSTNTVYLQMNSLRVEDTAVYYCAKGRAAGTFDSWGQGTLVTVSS
VL: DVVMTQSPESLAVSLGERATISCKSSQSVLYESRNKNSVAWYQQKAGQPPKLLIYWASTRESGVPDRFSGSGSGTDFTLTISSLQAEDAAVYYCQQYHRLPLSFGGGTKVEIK

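The starting antibody came from a phage panning campaign against this peptide. AAYL50 was designed without a model: most single CDR substitutions and a random sample of double and triple ones. In AlphaSeq, yeast of one mating type display the scFv and yeast of the other type display the target. Binding brings cells together so that they mate, and sequencing counts the barcode pairs among the diploids. A regression on co-assayed BCL2-family reference pairs converts the normalised counts of each replicate to an apparent Kd. There are three technical replicates.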

Positions count from residue 1 of the parent VL; L30P puts P in place of L.
Scale: log10 of Kd in nM, estimated from mating counts; low values are strong binders.
A mean of the replicates is given; it leaves out those without a signal.
Where no diploid with the target was found in any replicate, the entry reads "no signal": below detection, most likely a poor binder, though not proof of it.
As a blank, each scFv also met three strains without target: over library AAYL50, 18% of these pairings were detected, typically at 4.19 and seldom below 2.99. The control count says in how many pairings with the empty strains this scFv gave a signal.

| changes | mean, log10 nM | detected | signal with controls |
|---|---|---|---|
| L30P A57E | no signal | 0/3 | 0/9 |
| L30M K36P N37R | 1.24 | 3/3 | 1/9 |
| K36D V39R H98M | 4.23 | 3/3 | 0/9 |
| K24G V29H S38C | 2.42 | 1/3 | 0/9 |
| Y31D T59C L102R | 0.65 | 3/3 | 1/9 |
| V39F E61N H98W | 2.57 | 3/3 | 1/9 |
| A40I H98E R99L | no signal | 0/3 | 1/9 |
| K24L Y31K W56L | 2.24 | 1/3 | 0/9 |
| K36A S62Q L102C | 0.49 | 3/3 | 2/9 |
| N37Y A57D L102H | 3.69 | 3/3 | 1/9 |
| Y31D A57R Q95F | no signal | 0/3 | 0/9 |
| V29S S33D E61M | 0.48 | 3/3 | 3/9 |
| L30A K36R L102T | 1.23 | 3/3 | 1/9 |
| E61P Q96W | 2.41 | 3/3 | 3/9 |
| S26M Q27P Q96A | 3.14 | 2/3 | 0/9 |
| T59L S62C S103N | 1.81 | 3/3 | 3/9 |
| V29D N35K | 2.57 | 3/3 | 3/9 |
| K24Y Q27R K36F | 1.95 | 3/3 | 0/9 |
| S58M P101Y S103Y | 2.00 | 3/3 | 5/9 |
| Q27E A57G Q95P | 3.60 | 1/3 | 1/9 |
| L30E T59L | no signal | 0/3 | 0/9 |
| E32N R60Q H98I | 3.22 | 2/3 | 1/9 |
| A40P A57Q S103G | 5.69 | 2/3 | 4/9 |
| Y31K Q95P H98V | 3.63 | 1/3 | 0/9 |
| Q27W E32G N35I | 1.47 | 3/3 | 1/9 |
| L30A Y97L | 2.05 | 3/3 | 4/9 |
| A40S Q96G S103V | 3.55 | 1/3 | 1/9 |
| E32F S58N L100N | 3.88 | 2/3 | 0/9 |
| V29Q N37M | no signal | 0/3 | 0/9 |
| W56S S62D | -0.01 | 3/3 | 2/9 |
| V29E E61I Q96N | 1.03 | 3/3 | 6/9 |
| L30F R60A | 1.92 | 3/3 | 0/9 |
| K24F S38R Y97D | 3.49 | 3/3 | 4/9 |
| V29I N35Y | 1.21 | 3/3 | 2/9 |
| E32G T59F P101F | 3.48 | 1/3 | 0/9 |
| S33K R60I R99Q | 3.78 | 1/3 | 0/9 |
| L30P K36L S58E | 2.24 | 3/3 | 0/9 |
| K24M S25Y S58F | no signal | 0/3 | 0/9 |
| K24V V39Y W56C | no signal | 0/3 | 0/9 |
| Q27V L30R R60F | 4.58 | 2/3 | 1/9 |
| S26V Y31P A40V | 4.22 | 1/3 | 0/9 |
| S28W H98T S103D | no signal | 0/3 | 5/9 |
| S28Y A57H P101R | 5.12 | 2/3 | 1/9 |
| A40W P101Q L102I | 3.92 | 1/3 | 1/9 |
| R60F E61N Y97R | 3.55 | 1/3 | 0/9 |
| Q27I S33A Q95L | 1.58 | 3/3 | 0/9 |
| S33L R60G L102S | no signal | 0/3 | 0/9 |
| L30R Y31Q | 1.60 | 3/3 | 7/9 |
| S26L S58N L100T | no signal | 0/3 | 1/9 |
| Y31E S33R S58V | 1.21 | 3/3 | 0/9 |
| N35R A57K S103R | 3.65 | 1/3 | 3/9 |
| S28Y A40G S62T | 4.96 | 1/3 | 4/9 |
| V39R A40R A57E | 3.61 | 2/3 | 0/9 |
| K24N N35D N37F | 1.71 | 3/3 | 0/9 |
| V39G Y97V L100S | 3.67 | 2/3 | 3/9 |
| Y31F P101M | 1.85 | 3/3 | 2/9 |
| S28W Y31L Y97T | 4.52 | 1/3 | 3/9 |
| Q27N N37G V39F | no signal | 0/3 | 0/9 |
| S28G E32W S33N | no signal | 0/3 | 0/9 |
| S58V L100Y P101M | 5.13 | 3/3 | 7/9 |
| S33V S62T L100D | no signal | 0/3 | 0/9 |
| V39A L100K P101V | no signal | 0/3 | 0/9 |
| V29A S38H A57E | 2.94 | 1/3 | 0/9 |
| A57Q R99H S103L | 3.71 | 2/3 | 0/9 |
| R34V W56K Q95C | 2.71 | 3/3 | 0/9 |
| S25E S28D R34P | 2.71 | 3/3 | 2/9 |
| L30S W56E A57F | 1.20 | 3/3 | 0/9 |
| N35E S58P L102H | 3.86 | 3/3 | 5/9 |

The first 6 variants above that were never detected:

| changes | mean, log10 nM | detected | signal with controls |
|---|---|---|---|
| L30P A57E | no signal | 0/3 | 0/9 |
| A40I H98E R99L | no signal | 0/3 | 1/9 |
| Y31D A57R Q95F | no signal | 0/3 | 0/9 |
| L30E T59L | no signal | 0/3 | 0/9 |
| V29Q N37M | no signal | 0/3 | 0/9 |
| K24M S25Y S58F | no signal | 0/3 | 0/9 |

Values reported by Engelhart et al. 2022, doi:10.1038/s41597-022-01779-4 (FLAb copy).